# This is a selection: effects in other tests are not listed, and their absence says nothing.
# Assay: Fentanyl destruction in sodium hypochlorite solution (HPLC of remaining drug)
# [1] = time 1 hr, sodium hypochlorite solution
# [2] = time 2 hrs, sodium hypochlorite solution
# [3] = time 4 hrs, sodium hypochlorite solution
# [4] = time 8 hrs, sodium hypochlorite solution
smiles,measurement,setting,value
CCC(=O)N(c1ccccc1)C1CCN(CCc2ccccc2)CC1,Fentanyl (mg in 10 mL solution),"time 0 hrs, water/citric acid + 6-9 wt % sodium hypochlorite solution 1:1, shaker 150 rpm",3.50 mg in 10 mL solution
same,% Degraded,[1],33%
same,Fentanyl (mg in 10 mL solution),[1],2.34 mg in 10 mL solution
same,% Degraded,[2],55%
same,Fentanyl (mg in 10 mL solution),[2],1.57 mg in 10 mL solution
same,% Degraded,[3],90%
same,Fentanyl (mg in 10 mL solution),[3],0.34 mg in 10 mL solution
same,% Degraded,[4],100%
same,Fentanyl (mg in 10 mL solution),[4],0.00 mg in 10 mL solution
same,fentanyl degraded,within 4 hours in the hypochlorite solution,over 90%

# — patent US20050112068A1
